According to PubChem BioAssay AID588489 (Sanford-Burnham Center for Chemical Genomics, 2011):
Only a part is listed here, and it is no random draw. Active and inactive are the calls of the source. Rule as the data show it: active = inhibition above about 35% (passing the limit was not always enough); inactive = the rest.

Sequences of proteins named here, by UniProt entry; tags and fusion partners are left off.
UniProt P11940, whole entry, looked up: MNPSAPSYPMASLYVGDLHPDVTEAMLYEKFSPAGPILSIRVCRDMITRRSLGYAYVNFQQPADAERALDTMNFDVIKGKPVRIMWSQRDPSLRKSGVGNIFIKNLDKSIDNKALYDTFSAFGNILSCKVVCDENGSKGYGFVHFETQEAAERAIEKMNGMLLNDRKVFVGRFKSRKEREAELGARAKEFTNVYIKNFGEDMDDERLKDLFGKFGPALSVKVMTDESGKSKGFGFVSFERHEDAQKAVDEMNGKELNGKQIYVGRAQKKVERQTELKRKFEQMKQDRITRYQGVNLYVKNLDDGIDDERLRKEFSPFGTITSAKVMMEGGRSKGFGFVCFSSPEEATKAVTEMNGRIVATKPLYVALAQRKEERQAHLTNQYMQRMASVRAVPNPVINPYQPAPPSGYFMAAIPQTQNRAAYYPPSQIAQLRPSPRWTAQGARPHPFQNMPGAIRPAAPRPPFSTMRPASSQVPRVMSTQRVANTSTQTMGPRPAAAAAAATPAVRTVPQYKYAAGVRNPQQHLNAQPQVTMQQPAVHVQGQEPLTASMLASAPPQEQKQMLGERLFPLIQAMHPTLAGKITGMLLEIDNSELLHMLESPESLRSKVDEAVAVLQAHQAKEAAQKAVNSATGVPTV

What follows are compounds tested against Polyadenylate-binding protein 1 (Homo sapiens) (UniProt P11940) (assay: inhibitors of PABP1 MLLE–PAM2 peptide binding, primary screen, biochemical, fluorescence polarization, FITC-PAM2, GST-MLLE (AID 588489;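 also: plate controls were DMSO wells with GST-MLLE for no effect and wells lacking GST-MLLE protein for full effect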)). Conditions: at 20 µM, stronger effect = higher value.

SMILES	inhibition
Cc1ccc(OP(=O)(Nc2ccccn2)Oc2ccc(C)cc2)cc1	inactive: 1.67%
Cc1ccccc1OP(=O)(Nc1ccccn1)Oc1ccccc1C	inactive: 2.89%
CC(NC(=O)COC(=O)C(O)(c1ccccc1)c1ccccc1)c1ccccc1 (stereo unspecified)	inactive: 7.07%
CN(C)C(=O)Oc1noc2ccccc12	inactive: -14.4%
O=c1c2cc([N+](=O)[O-])ccc2[nH]c2c([N+](=O)[O-])cc([N+](=O)[O-])cc12	inactive: -80.3%
O=P(Nc1ccccn1)(c1ccc(Br)cc1)c1ccc(Br)cc1	inactive: 10.5%
CN(C)C1(CNC(=O)c2ccc(Cl)c(S(N)(=O)=O)c2)CCCCC1	inactive: 10%
Nc1ccc(CCCCOc2ccccc2)cc1	inactive: 9.88%
COc1ccc(N)c([N+](=O)[O-])c1[N+](=O)[O-]	inactive: -0.03%
O=P(Nc1nc2ccccc2s1)(c1ccccc1)c1ccccc1	inactive: -4.26%
C[C@H]1OP(=O)(Oc2ccccc2)[C@H](O)[C@H](O)[C@H]1N=[N+]=[N-] (stereo partly specified)	inactive: -1.69%
O=[As](O)(c1ccccc1)c1ccc(O)cc1	inactive: 2.87%
O=[N+]([O-])c1ccc(O)c(/C=N/Nc2ccc([N+](=O)[O-])cc2[N+](=O)[O-])c1	inactive: 2.6%
CC(=O)NC(SC(=S)N(C)C)C(Cl)(Cl)Cl (stereo unspecified)	active: 44.5%
O=[N+]([O-])c1ncn(CCn2cnc([N+](=O)[O-])n2)n1	inactive: 10.1%
O=C(OC1CN2CCC1CC2)c1cccc(Cl)c1 (stereo unspecified)	inactive: 8.21%
Nc1ccc([As](=O)(O)c2ccc([N+](=O)[O-])cc2)cc1	inactive: -11.6%
C(Cc1nn[nH]n1)Cc1nn[nH]n1	inactive: 5.57%
CC(C)C(=O)NC(Sc1ccccc1)C(Cl)(Cl)Cl (stereo unspecified)	inactive: 0.19%
O=P(Nc1nccs1)(c1ccccc1)c1ccccc1	inactive: 3.79%
c1nnnn1CCn1cnnn1	inactive: 9.23%
O=P1(Nc2ccccn2)COc2ccccc2OC1	inactive: 4.63%
CCC1=CC2Cc3nc4ccc(Cl)cc4c(N)c3C(C1)C2 (stereo unspecified)	inactive: -7.98%

SMILES	inhibition
CCOP(=O)(NC(=NC(C)c1ccccc1)NC(C)c1ccccc1)OCC (stereo unspecified)	inactive: 1.73%
CN(CCCl)Cc1cc(Cl)c(NC2=NCCN2)c(Cl)c1	inactive: -1.73%
CCOP(=O)(Nc1ccc(C)cn1)OCC	inactive: -9.24%
O=P1(N(CCCl)CCCl)NCCC(C(F)(F)F)O1 (stereo unspecified)	inactive: -3.71%
Clc1n[nH]nc1-c1nn[nH][15n]1	inactive: 5.8%
CC(C)(C)C(=O)NC(Sc1ncccn1)C(Cl)(Cl)Cl (stereo unspecified)	inactive: 40%
COc1ccccc1CNC(=O)COC(=O)C(O)(c1ccccc1)c1ccccc1	inactive: -1.11%
CC(C)/C=N\N=C(\N)N[N+](=O)[O-]	inactive: 12.3%
CN(C(=O)Cc1ccc(Cl)c(Cl)c1)[C@@H]1CCCC[C@H]1N1CCCC1	inactive: -1.78%
CC1(CBr)Cn2c(nc3ccccc3c2=O)S1 (stereo unspecified)	inactive: 20.3%
Cc1nn(-c2ccccc2)c2c1P(=O)(N1CCOCC1)N(C)C(c1ccccc1)=N2 (stereo unspecified)	inactive: 1.96%
CC1CCC(C(C)C)C(OP(=O)(Nc2ccccn2)c2ccccc2)C1 (stereo unspecified)	inactive: 1.48%
Cc1ccc(C(=O)OC2CN3CCC2CC3)cc1 (stereo unspecified)	inactive: -6.33%
CN(C)C1(CNC(=O)c2ccc(S(C)(=O)=O)cc2)CCCCC1	inactive: 0.35%
O=C(/C=C/c1ccccc1)OC1CN2CCC1CC2 (stereo unspecified)	inactive: -4.78%
CCCC1OP(=O)(Nc2ccccc2)OCC1CC (stereo unspecified)	inactive: 0.51%
Cc1ccc(S(=O)(=O)N(CCCN)CCCc2c(C)nc(N)[nH]c2=O)cc1	inactive: 3.41%
O=P1(Nc2ncccn2)COc2ccccc2OC1	inactive: -0.69%
Nc1cccc([As](=O)(O)c2ccccc2)c1	inactive: -5.16%
O=P1(Nc2ccc(Br)cn2)COc2ccccc2OC1	inactive: -8.83%
NS(=O)(=O)c1cccc(NC(=O)COC(=O)C(O)(c2ccccc2)c2ccccc2)c1	inactive: -6.88%
Cc1ccc(OCC(=O)OC2CN3CCC2CC3)cc1 (stereo unspecified)	inactive: 7.63%
O=[As](O)(c1cccs1)c1cccs1	inactive: -1.9%

SMILES	inhibition
CCOP1(=S)c2c(C)nn(CCC#N)c2N=C(c2ccccc2F)N1C (stereo unspecified)	inactive: 14.5%
O=P(Nc1nccs1)(c1ccccc1)c1nc2ccccc2s1 (stereo unspecified)	inactive: 17.4%
O=P(Nc1nccs1)(Oc1ccccc1)Oc1ccccc1	inactive: -7.62%
CS(=O)(=O)c1cc([N+](=O)[O-])c2no[n+]([O-])c2c1	inactive: 15.2%
Nc1ccccc1[As](=O)(O)c1ccccc1	inactive: 9.53%
O=C(O)COc1ccc([As](=O)(O)O)cc1[N+](=O)[O-]	inactive: -5.06%
NC(=O)Nc1ccc([As](=O)(O)O)cc1	inactive: -4.37%
N#CCCN(C(=O)COC(=O)C(O)(c1ccccc1)c1ccccc1)c1ccc(F)cc1	inactive: -2.51%
CCOP1(=S)c2c(C)nn(CCC#N)c2N=C(c2ccc(F)cc2)N1C (stereo unspecified)	inactive: 28.2%
CN(C(=O)Cc1ccccc1)[C@@H]1CC[C@]2(CCCO2)C[C@H]1N1CCCC1	inactive: -12.8%
CN(C)C(=O)c1cc([N+](=O)[O-])cc2c1-c1c(cc([N+](=O)[O-])cc1[N+](=O)[O-])C2=O	inactive: 8.68%
O=[N+]([O-])c1ccc2c(c1)nnn2O	inactive: -1.32%
CN(C(=O)Cc1ccc(Cl)c(Cl)c1)[C@H]1CC[C@@]2(CCCO2)C[C@@H]1N1CCCC1	inactive: -11.2%
O=C(OC1CN2CCC1CC2)c1ccc(Cl)cc1 (stereo unspecified)	inactive: -1.35%
COc1cc(C(=O)NCC2(N3CCOCC3)CCCCC2)cc(Cl)c1OC(C)C	inactive: -6.64%
O=[As](O)(O)c1cccnc1	inactive: 3.45%
CS(=O)(=O)c1ccc(Cl)c(NC(=O)COC(=O)C(O)(c2ccccc2)c2ccccc2)c1	inactive: -11%
O=[As](O)(c1cccc(O)c1)c1cccc(O)c1	inactive: -23.8%
Cc1cccc(OCC(=O)OC2CN3CCC2CC3)c1 (stereo unspecified)	inactive: 3.69%
Cc1ccc(NCCc2c([N+](=O)[O-])cc([N+](=O)[O-])cc2[N+](=O)[O-])cc1	inactive: -0.17%
Nc1cccc2c([As](=O)(O)O)cccc12	inactive: 170%
CCCOP(=S)(Nc1nc(N)cc(=O)[nH]1)OCCC	inactive: 8.58%
COc1cc(C2NCCC3(OCCO3)C2(C)C)cc(OC)c1OC (stereo unspecified)	inactive: -16.6%

SMILES	inhibition
CCOP(=O)(Nc1cccc2ccccc12)OCC	inactive: -2.35%
Cc1c2c(nc3ccccc13)SC(C(Cl)Cl)C2 (stereo unspecified)	inactive: 6.81%
O=C(OC1CN2CCC1CC2)C12CC3CC(CC(C3)C1)C2 (stereo unspecified)	inactive: -10.7%
Cc1cc(=O)[nH]c(N[N+](=O)[O-])n1	inactive: 17.3%
O=P1(N(CCCl)CCCl)Nc2ccccc2N1	inactive: 16%
O=P1(N(CCCl)CCCl)OCCCN1CCCl (stereo unspecified)	inactive: -3.14%
COc1ccc2nc(NP(=O)(c3ccccc3)c3ccccc3)sc2c1	inactive: -7.06%
COc1cc(I)ccc1[As](=O)(O)O	inactive: -6.43%
O=[N+]([O-])c1cc(Oc2ccc([N+](=O)[O-])cc2C(F)(F)F)cc([N+](=O)[O-])c1	inactive: 3.25%
COc1ccc(N/C(=N/P(=O)(N2CCOCC2)N2CCOCC2)N2CCOCC2)cc1	inactive: 18.1%
O=[As](O)(c1ccc(O)cc1)c1ccccc1O	inactive: 7.53%
C[As](=O)(O)c1cccc(C(=O)O)c1	inactive: -9.1%
COc1cc(C(=O)NCC2(N3CCOCC3)CCCCC2)ccc1OCC(C)C	inactive: -0.29%
O=[N+]([O-])c1ccc(-c2cc([N+](=O)[O-])c(O)c([N+](=O)[O-])c2)cc1	inactive: 2.89%
Cc1ccc(OP(=O)(Nc2ccc([N+](=O)[O-])cn2)Oc2ccc(C)cc2)cc1	inactive: 0.63%
Cc1ccc2nc3c(c(C)c2c1)CC(C(Cl)Cl)S3 (stereo unspecified)	inactive: -9.53%
ClCCSc1nnc(-c2cccnc2)o1	inactive: 0.85%
CC(C)c1ccc(OP(=O)(Nc2ccccn2)Oc2ccccc2F)cc1 (stereo unspecified)	inactive: -3.75%
COC(=O)C1(C)COP(=O)(N2CCCCCC2)OC1 (stereo unspecified)	inactive: -15.9%
CCN(CC)C(=S)SC(NC=O)C(Cl)(Cl)Cl (stereo unspecified)	inactive: 30.9%
O=C(OC1CN2CCC1CC2)c1cccc2[nH]cnc12 (stereo unspecified)	inactive: -5.61%
CC(C)NC(=O)NP(=O)(Oc1ccccc1)Oc1ccccc1	inactive: 4.86%
O=[N+]([O-])c1cc([N+](=O)[O-])c(-c2ccn[nH]2)s1	inactive: -55%

SMILES	inhibition
CCOC(=O)Nc1ccc([As](=O)(O)O)c(O)c1	inactive: -11.7%
O=C(O)C(O)c1ccc(N(CCCl)CCCl)cc1 (stereo unspecified)	inactive: 4.02%
CC1CCNP(=O)(N(CCCl)CCCl)O1 (stereo unspecified)	inactive: -9.66%
COP(=O)(OC)N1CC1c1ccccc1 (stereo unspecified)	inactive: -1.91%
CCCCOc1ccc(C(=O)NCC2(N3CCCCC3)CCCCC2)cc1OC	inactive: -6.9%
Cc1cc(SC(NC(=O)c2ccccc2)C(Cl)(Cl)Cl)nc(C(C)C)n1 (stereo unspecified)	inactive: 31.1%
CCOC(=O)Nc1cccc([As](=O)(O)O)c1	inactive: -13.2%
O=P(Nc1ccccn1)(c1cccc2ccccc12)c1cccc2ccccc12	inactive: -11.7%
Cc1cc(SC(NC=O)C(Cl)(Cl)Cl)ncn1 (stereo unspecified)	active: 38.6%
O=[N+]([O-])c1ccc(Nc2ccc(Oc3ccc([N+](=O)[O-])cc3[N+](=O)[O-])cc2)c([N+](=O)[O-])c1	inactive: -6.17%
COP1(=S)c2c(C)nn(CCC#N)c2N=C(c2ccc(F)cc2)N1C (stereo unspecified)	inactive: 22.6%
COC(=O)C1(C)COP(=O)(N2CCCC2)OC1 (stereo unspecified)	inactive: -12.2%
O=C(O)C(=O)c1ccc(N(CCCl)CCCl)cc1	inactive: -3.67%
O=C(COc1ccccc1)OC1CN2CCC1CC2 (stereo unspecified)	inactive: -8.57%
O=C(Nc1ccncc1[N+](=O)[O-])c1ccc([N+](=O)[O-])cc1[N+](=O)[O-]	inactive: 1.79%
O=C(OC1CN2CCC1CC2)c1cccc([N+](=O)[O-])c1 (stereo unspecified)	inactive: 11.8%
CSc1ccc(Nc2c([N+](=O)[O-])cc([N+](=O)[O-])cc2[N+](=O)[O-])cc1	inactive: 4.32%
CCOC(=O)c1ccc(NC(=O)C(C)(CCl)SC)cc1 (stereo unspecified)	inactive: 9.14%
CCC(C)N(CC(C)C)C(=S)SC(NC(C)=O)C(Cl)(Cl)Cl (stereo unspecified)	inactive: 15.8%
